# Measurements taken from PubChem BioAssay AID651647 (Sanford-Burnham Center for Chemical Genomics, 2012).
# The list shows a part of the results, in another mix than the full data. Calls of active or inactive are those of the source.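 How the source made its calls: active means GFP/RFP ratio change of at least 30% with cell ATP level not reduced by more than half and red fluorescence within 50% of control; inactive means the rest, inconclusive results apart.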
# Target: Matrix metalloproteinase-14 (Homo sapiens) (UniProt P50281)
# Test: blockers of MT1-MMP proenzyme processing, primary screen, HT1080 RFP-PRO-GFP cells, GFP/RFP fluorescence (AID 651647)
# Conditions: overnight, at 20 µM, active compounds read high, percent of plate control window, DMSO zero
# Outline: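 Material: RFP-PRO-GFP reporter HT1080 cells. Dosing: single-point 20 µM compound, 1% DMSO. Controls: DMSO and RFP-L50D-GFP cell wells. Timing: cells overnight before dosing, compound overnight, 37 °C, 5% CO2. Measure: GFP/RFP fluorescence ratio.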
row,SMILES,GFP/RFP ratio change
1,O=P(Nc1nccs1)(c1ccccc1)c1ccccc1,inactive: 2.72%
2,CC(C)C(=O)NC(Sc1ccccc1)C(Cl)(Cl)Cl (stereo not given),inactive: 2.16%
3,c1nnnn1CCn1cnnn1,inactive: -11.5%
4,CN(C)C1(CNC(=O)c2ccc(Cl)c(S(N)(=O)=O)c2)CCCCC1,inactive: -1.48%
5,O=P(Nc1ccccn1)(c1ccc(Br)cc1)c1ccc(Br)cc1,inactive: -21.4%
6,COc1ccc(N)c([N+](=O)[O-])c1[N+](=O)[O-],inactive: 5.42%
7,Nc1ccc(CCCCOc2ccccc2)cc1,inactive: -4.52%
8,O=P(Nc1nc2ccccc2s1)(c1ccccc1)c1ccccc1,inactive: 2.35%
9,C[C@H]1OP(=O)(Oc2ccccc2)[C@H](O)[C@H](O)[C@H]1N=[N+]=[N-] (stereo not given in full),inactive: -3.24%
10,O=[As](O)(c1ccccc1)c1ccc(O)cc1,inactive: -5.93%
11,O=[N+]([O-])c1ncn(CCn2cnc([N+](=O)[O-])n2)n1,inactive: 3.55%
12,CC(=O)NC(SC(=S)N(C)C)C(Cl)(Cl)Cl (stereo not given),inactive: -2.34%
13,O=[N+]([O-])c1ccc(O)c(/C=N/Nc2ccc([N+](=O)[O-])cc2[N+](=O)[O-])c1,inactive: -0.592%
14,O=C(OC1CN2CCC1CC2)c1cccc(Cl)c1 (stereo not given),inactive: -0.704%
15,C(Cc1nn[nH]n1)Cc1nn[nH]n1,inactive: 1.7%
16,Nc1ccc([As](=O)(O)c2ccc([N+](=O)[O-])cc2)cc1,inactive: 0.742%
17,c1ccc(-c2nn[nH]n2)c(-c2nn[nH]n2)c1,inactive: -1.69%
18,Cc1ccc(NP(=O)(Oc2cccc(C)c2)Oc2cccc(C)c2)nc1,inactive: 2.17%
19,O=C(NC1CCS(=O)(=O)C1)NP(=S)(Oc1ccccc1)Oc1ccccc1 (stereo not given),inactive: -1.1%
20,CCNC(=S)/N=C(\N)N[N+](=O)[O-],inactive: 2.32%
21,O=P1(N(CCCl)CCCl)OCCC2CCCCN21 (stereo not given),inactive: 2.41%
22,O=C(OC1CN2CCC1CC2)c1ccccc1 (stereo not given),inactive: 0.64%

row,SMILES,GFP/RFP ratio change
1,CCC(=O)N1C2C3N(C(=O)CC)C1C1N(C(=O)CC)C(C(N1C(=O)CC)N3C(=O)CC)N2C(=O)CC,inactive: 0.905%
2,COC(=O)c1cc2c(s1)N=C(c1ccccc1)N(C)P2(=O)N1CCOCC1 (stereo not given),inactive: 1.83%
3,Cc1ccc(OP(=O)(Nc2ccccn2)Oc2ccc(C)cc2)cc1,inactive: 2.8%
4,CC(=O)NC(SC(=S)N(CC(C)C)CC(C)C)C(Cl)(Cl)Cl (stereo not given),inactive: 2.04%
5,CC(NC(=O)COC(=O)C(O)(c1ccccc1)c1ccccc1)c1ccccc1 (stereo not given),inactive: -2.09%
6,Cc1ccccc1OP(=O)(Nc1ccccn1)Oc1ccccc1C,inactive: -2.22%
7,O=c1c2cc([N+](=O)[O-])ccc2[nH]c2c([N+](=O)[O-])cc([N+](=O)[O-])cc12,inactive: -5.5%
8,CN(C)C(=O)Oc1noc2ccccc12,inactive: -1.59%
9,O=P1(Nc2nc3ccc(Cl)cc3s2)COc2ccccc2O1 (stereo not given),inactive: 0.0811%
10,CCOc1ccc(C2=NCC(CBr)S2)cc1 (stereo not given),inactive: -3.96%
11,CC(C)(C)C(=O)NC(Sc1ccccc1)C(Cl)(Cl)Cl (stereo not given),inactive: -1.21%
12,CCc1cc(O)c([N+](=O)[O-])c(C)c1[N+](=O)[O-],inactive: 6.33%
13,C[C@H]1OP(=O)(Oc2ccccc2)C[C@@H]2O[C@@H]21 (stereo not given in full),inactive: 1.27%
14,C[C@@H]1C=CCP(=O)(Oc2ccccc2)O1 (stereo not given in full),inactive: 5.78%
15,CC(=O)c1ccc(N2CC2c2ccncc2)cc1 (stereo not given),inactive: -3.14%
16,N#C/C(=C\c1ccc(N(CCBr)CCBr)cc1)C(N)=O,inactive: 0.489%
17,COC(=O)C1(C)COP(=O)(NCc2ccccc2)OC1 (stereo not given),inactive: 0.28%
18,CC(=O)Nc1ccc([As](=O)(O)O)c(O)c1,inactive: 4.3%
19,CC(=O)Nc1ccc(Oc2c([N+](=O)[O-])cc([N+](=O)[O-])cc2[N+](=O)[O-])cc1,inactive: 2.18%
20,CN(C(=O)Cc1ccc(Cl)c(Cl)c1)[C@H]1CCCC[C@H]1N1CCCC1,inactive: 2.4%
21,Cc1ccc(N/C(=N/P(=O)(N2CCOCC2)N2CCOCC2)N2CCOCC2)cc1,inactive: -11.3%
22,NC(=O)c1cc([N+](=O)[O-])cc([N+](=O)[O-])c1N,inactive: 2.18%

row,SMILES,GFP/RFP ratio change
1,CN1CCCC(OC(=O)C(c2ccccc2)c2ccccc2)C1 (stereo not given),inactive: -4.93%
2,Clc1ccc(Cl)c(NC2=NCC(CBr)S2)c1 (stereo not given),inactive: 2.38%
3,COc1ccccc1OP(=O)(Nc1ccc(C)cn1)Oc1ccccc1OC,inactive: -0.457%
4,Cc1ccc(OP(=O)(Nc2nccs2)Oc2ccc(C)cc2)cc1,inactive: 0.311%
5,Oc1ccccc1CNc1ccccn1,inactive: 4.02%
6,O=C(NC(Sc1ccncn1)C(Cl)(Cl)Cl)c1ccccc1 (stereo not given),inactive: -1.15%
7,Nc1cc(N)c2nonc2c1[N+](=O)[O-],inactive: 2.21%
8,CC(C)CC(=O)NC(Sc1ccc(Cl)cc1)C(Cl)(Cl)Cl (stereo not given),inactive: -5.61%
9,O=[N+]([O-])C1C(O)C(O)C([N+](=O)[O-])C(O)C1O (stereo not given),inactive: 2.98%
10,O=P(Nc1nc2ccc(Cl)cc2s1)(c1ccccc1)c1ccccc1,inactive: 3.51%
11,CN(C)P(=O)(N(C)C)n1c(Nc2ccccc2)nnc1-c1ccccc1,inactive: -3.19%
12,CC(=O)Nc1ccc([As](=O)(O)O)cc1,inactive: 0.373%
13,O=C(O)c1ccccc1[As](=O)(O)O,inactive: -3.63%
14,CCCC1OP(N)(=O)OCC1CC (stereo not given),inactive: 3.51%
15,Cc1cc(SC(NC(=O)c2ccc(F)cc2)C(Cl)(Cl)Cl)ncn1 (stereo not given),inactive: 1.11%
16,CCOP(=O)(Nc1ccccc1)OCC,inactive: -3.82%
17,CN(C(=O)Cc1ccc(Cl)c(Cl)c1)[C@H]1CCCC[C@@H]1N1CCCC1,inactive: 2.61%
18,Cc1ccc(NP(=O)(Oc2ccccc2F)Oc2ccccc2F)nc1,inactive: 3.79%
19,Nc1cccc2ccc([As](=O)(O)O)cc12,inactive: 26.4%
20,CCN(N=Nc1nonc1N)c1nonc1N,inactive: -0.673%
21,O=P1(N(CCCl)CCCl)OCCCS1 (stereo not given),inactive: 1.52%
